## Measured affinities in a library of Ab-14 light chain variants

Antigen: PDVDLGDISGINAS, a 14-residue peptide of the SARS-CoV-2 spike HR2 region.

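Phage display of a naive human antibody library on the peptide gave the parent. Designed CDR sequences, proposed from the first random library and measured here. Their group label is 14L_GP_HC (GP: Gaussian process model; HC: hill climbing; a sequence that several methods proposed may carry one label only). Affinity was read by AlphaSeq, a pooled yeast mating assay with surface-displayed partners. Mating (16 h, 30 °C) was followed by selection of diploids and sequencing of their barcodes. Each replicate has its own calibration line, from reference interactions of the BCL2 family. There are six technical replicates.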

Each scFv is VH, a (GGGGS)3 linker, VL, as in the parent Ab-14, and differs from it in the CDRs of the light chain only.
VH: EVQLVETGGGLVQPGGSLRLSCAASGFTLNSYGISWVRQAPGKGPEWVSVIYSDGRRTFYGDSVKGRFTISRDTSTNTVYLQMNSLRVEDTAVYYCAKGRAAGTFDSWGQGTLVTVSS
VL: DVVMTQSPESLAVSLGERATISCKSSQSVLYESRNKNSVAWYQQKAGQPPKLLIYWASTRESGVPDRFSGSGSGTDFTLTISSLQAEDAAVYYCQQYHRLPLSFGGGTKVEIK

Each variant is given by its three light chain CDRs, as the data file delimits them; those of the parent are KSSQSVLYESRNKNSVA, WASTRES, QQYHRLPLS.
The read-out is the apparent dissociation constant on a log10 scale (nM): the lower, the stronger.
"nd" marks a missing value. The strain was present, yet no cells mated with the target were sequenced in that replicate, which points to weak or no binding.
The authors averaged sequences with at least three values out of six and counted those with two or fewer as poor binders.
Nonspecific signal, from three strains lacking the peptide, appeared in 4% of pairings of all light chain designs, centred on 2.64 (5% of these signals below 1.59); values are not corrected for it. Also given: how often the same scFv was detected with the empty control strains, with their mean in brackets.
Of ten entries with the parent sequence, four were seen in most replicates (averages 0.34 to 2.37), three in one and three in none, so single entries are noisy.
Values of this round are not directly comparable with the first-round values of the same sequences.

CDR-L1,CDR-L2,CDR-L3,"replicates, log10 nM",control signals
HSSPSVAYESRNKNSVA,EASTRES,QQYHRLPLS,0.41 / 0.25 / 0.17 / 0.08 / 0.43 / 0.22,0/18
FSLQSVLQESRNFNSVA,HASTRED,QQYHRLPLS,2.08 / 1.63 / 0.80 / 1.12 / 0.89 / 1.64,0/18
KFSQSVLYESRAKNSVA,NAVTRET,QQYHRLPLS,-0.13 / -0.41 / -0.43 / -0.49 / -0.50 / -0.47,0/18
HLSDSVLYESRNKNSVA,NASTRES,QQYHRLPLM,-0.29 / -0.32 / -0.37 / -0.50 / -0.32 / 0.02,1/18 (2.05)
KFSQSVLYESTTENSVA,NASTRES,QQYHRLPLS,0.38 / 0.37 / 0.34 / 0.12 / 0.34 / 0.24,1/18 (2.27)
KSSQSYLYESRNFNSVA,GASTRES,QQYHRLPLS,0.37 / 0.04 / 0.27 / 0.49 / 0.19 / 0.07,1/18 (2.09)
KLEQSIEYESRNKNSVA,NASTRES,QQYHRLPLS,0.25 / -0.03 / -0.14 / -0.21 / 0.05 / 0.06,0/18
KSSISFLYESRNKNSVA,AASTRES,QQYHRLPLS,0.28 / 0.32 / 0.01 / 0.21 / 0.16 / 0.17,1/18 (2.39)
KSSQSWLYESRNKNSVA,GASTREI,QQYHRLPLS,-0.23 / -0.48 / -0.69 / -0.76 / -0.46 / -0.43,0/18
KQSQSTLYESVNKNSVA,DASTRES,QQYHRLPLS,0.21 / -0.04 / 0.27 / 0.14 / -0.14 / 0.16,0/18
KVSQSVLYESRTKNSVA,NASTRES,QQMHRLPLM,0.96 / 0.84 / 0.85 / 1.21 / 0.66 / 1.07,0/18
KSSISVLYESQNKNSVA,EASQRES,QQYHRLPLS,0.26 / -0.07 / 0.20 / 0.31 / -0.01 / 0.56,2/18 (2.00)
KHPQSVLYESRNKNSVA,HASTRED,QSYHRLPLS,-0.10 / 0.41 / 0.04 / -0.07 / -0.46 / -0.12,0/18
KSSISYLYESRNWNSVA,EASTREQ,QQYHRLPLS,0.28 / 0.04 / 0.09 / -0.04 / -0.16 / 0.08,0/18
KYYPSYEYESRNKNSVA,QASTRES,QQYHRLPLS,0.25 / 0.18 / 0.09 / -0.02 / 0.30 / 0.28,1/18 (2.69)
KVSQSNLMESRNKNSVA,EASTRES,QQYHRLPLS,-0.07 / -0.13 / -0.22 / -0.26 / -0.27 / -0.09,1/18 (3.28)
KVSQSVLYESRMKNSVA,DASTRCS,QQYHRLPLC,0.11 / -0.10 / 0.00 / -0.09 / -0.25 / 0.17,0/18
KLSQGALYESRNKNSVA,GASTRES,QQYHRLPLS,-0.05 / -0.16 / -0.26 / -0.31 / -0.17 / -0.09,1/18 (2.88)
KSGQGVLYESRNKNSVA,GASLRES,QQYHRLPLS,0.02 / 0.10 / 0.18 / -0.20 / -0.33 / 0.07,1/18 (2.46)
KSQQSQLYESRNQNSVA,HASTRED,QQYHRLPLS,0.20 / 0.07 / -0.03 / -0.04 / -0.01 / 0.24,1/18 (3.21)
KISQSVLFESRNKNSVA,DASTRES,QQYHRLPLS,-0.09 / 0.00 / -0.08 / -0.03 / -0.14 / -0.14,2/18 (1.60)
KMSQSYHYESRNKNSVA,GASTRES,QQYHRLPLS,0.21 / -0.06 / -0.16 / -0.17 / -0.11 / 0.06,0/18
KLSISGLYESRNKNSVA,AASTRES,QQYHRLPLS,-0.22 / -0.29 / -0.24 / -0.32 / -0.19 / 0.10,1/18 (2.14)
KSSISYEYESPNKNSVA,EASTRES,QQYHRLPLS,1.70 / 0.72 / 1.10 / 0.93 / 0.87 / 0.84,0/18
KSSPDVLYESHNKNSVA,NASTRMS,QQYHRLPLS,0.49 / 0.40 / 0.15 / 0.15 / 0.36 / 0.38,1/18 (2.18)
KLSGSTLYDSQNKNSVA,WASTRES,QQYHRLPLS,0.44 / 0.46 / 0.63 / 0.09 / 0.45 / 0.66,2/18 (2.71)
KSLWSVEYESNNKNSVA,HASTRED,QQYHRLPLS,0.55 / 0.24 / 0.30 / 0.32 / 0.19 / 0.21,4/18 (2.94)
KYLQSVLYESRDKNSVA,HASTRED,QQYHRLPLS,0.30 / 0.00 / -0.11 / -0.09 / 0.08 / 0.13,0/18
HSSQSVPYESRNKNSVA,NASTREQ,QQYHRLPLS,0.34 / 0.13 / 0.17 / 0.30 / 0.09 / 0.20,1/18 (3.91)
KLSQSWLYESRNKNSVA,GASAREV,QQYHRLPLS,0.66 / 0.68 / 0.51 / 0.64 / 0.79 / 0.56,0/18
KSSISGLYESRTKNSVA,EASTRES,QQYHRLPLS,0.23 / 0.18 / -0.06 / -0.34 / -0.07 / 0.24,0/18
KASQSWGYESRNKNSVA,GASTRES,QQYHRLPLS,-0.19 / -0.38 / -0.37 / -0.55 / -0.64 / -0.26,2/18 (2.26)
KSSISYEYESRNKNSVA,EASTRES,QQYHRMPLS,0.57 / 0.07 / 0.05 / 0.03 / 0.43 / 0.41,0/18
KSSWSVLPESRNKNSVA,DASTRES,QQYHRLPLS,0.03 / -0.02 / -0.01 / -0.16 / -0.18 / 0.13,0/18
KSSQGALYESRNKNSVA,GASTRES,QQYHRLPLS,1.64 / 2.00 / 0.90 / 1.53 / 1.85 / nd,0/18
KLSQSSLYDSRNKNSVA,NASTRES,QQYHRLPLS,0.06 / -0.28 / -0.26 / -0.58 / -0.78 / -0.34,1/18 (2.62)
HVSPSVEYESRNKNSVA,NASTRES,QQYHRLPLS,1.36 / 1.79 / 1.15 / 0.91 / 1.36 / 2.03,0/18
KQSQSVLFQSRNKNSVA,DASTRES,QQYHRLPLS,-0.27 / -0.20 / -0.61 / -0.60 / -0.39 / -0.36,1/18 (1.99)
KSSQSVLGEQRNCNSVA,DASTRES,QQYHRLPLS,0.73 / 0.45 / 0.45 / 0.64 / 0.71 / 0.76,2/18 (2.69)
KQSQEVLQESRNKNSVA,DASTRES,QQYHRLPLS,-0.26 / -0.16 / -0.19 / -0.39 / -0.26 / 0.13,1/18 (1.44)
KSQQSVLYESRNKNNVA,AASTRED,QQYARLPLS,0.87 / 1.95 / 1.12 / nd / nd / nd,0/18
KSSQSVAMESRNANSVA,HASTRES,QQYHRLPLS,0.44 / 0.40 / 0.42 / 0.65 / 0.33 / 0.53,0/18
KSPQSWLYESRNKNSVA,HASTREQ,QQYHRLPLS,0.10 / 0.11 / -0.19 / -0.05 / 0.15 / 0.06,1/18 (3.18)
KSSISCLYESMNKNSVA,EASTRES,QQYHRLPLS,0.75 / 0.74 / 0.65 / 0.55 / 0.31 / 0.57,2/18 (2.73)
KSSQKYLYESRNKNSVA,GASTRES,QQYHRLPLS,1.42 / 1.18 / 2.78 / 1.28 / 1.03 / 1.46,0/18
KSSISSLYESRNTNSVA,EASTRES,QQYHRLPLS,0.67 / 0.78 / 1.06 / 0.37 / 0.86 / 0.69,2/18 (2.30)
KSSGSYLEESRNKNSVA,EASTRES,QQYHRLPLS,1.22 / 0.45 / 0.63 / 1.26 / 0.87 / 1.08,0/18
HSSPSVLYESRNKNNVA,NASTREQ,QQYHRLPLS,1.37 / 1.36 / 1.26 / 0.83 / 1.23 / 1.33,0/18

The 7 strongest on average among those seen in every replicate, once more:

| CDR-L1 | CDR-L2 | CDR-L3 | replicates, log10 nM | control signals |
|---|---|---|---|---|
| KSSQSWLYESRNKNSVA | GASTREI | QQYHRLPLS | -0.23 / -0.48 / -0.69 / -0.76 / -0.46 / -0.43 | 0/18 |
| KQSQSVLFQSRNKNSVA | DASTRES | QQYHRLPLS | -0.27 / -0.20 / -0.61 / -0.60 / -0.39 / -0.36 | 1/18 (1.99) |
| KFSQSVLYESRAKNSVA | NAVTRET | QQYHRLPLS | -0.13 / -0.41 / -0.43 / -0.49 / -0.50 / -0.47 | 0/18 |
| KASQSWGYESRNKNSVA | GASTRES | QQYHRLPLS | -0.19 / -0.38 / -0.37 / -0.55 / -0.64 / -0.26 | 2/18 (2.26) |
| KLSQSSLYDSRNKNSVA | NASTRES | QQYHRLPLS | 0.06 / -0.28 / -0.26 / -0.58 / -0.78 / -0.34 | 1/18 (2.62) |
| HLSDSVLYESRNKNSVA | NASTRES | QQYHRLPLM | -0.29 / -0.32 / -0.37 / -0.50 / -0.32 / 0.02 | 1/18 (2.05) |
| KLSISGLYESRNKNSVA | AASTRES | QQYHRLPLS | -0.22 / -0.29 / -0.24 / -0.32 / -0.19 / 0.10 | 1/18 (2.14) |

From the AlphaSeq antibody data of Li et al. 2023 (doi:10.1038/s41467-023-39022-2), copy in the FLAb collection.